Source: PubChem BioAssay (NCI)
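Step 1: Grow cells in 96-well plates. Step 2: Expose to compound for 48 hours at 5 concentrations. Step 3: Interpolate endpoints linearly; if unreached, use highest concentration. GI50 = concentration required for 50% inhibition of growth. TGI: total growth inhibition.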

Columns and labels:
Experiment in all cases: NCI tumour cell line growth inhibition, 48 h
786-0 renal = tested on: 786-0 renal
A498 renal = tested on: A498 renal
A549 NSCLC = tested on: A549 NSCLC
ACHN renal = tested on: ACHN renal
BT-549 breast = tested on: BT-549 breast
CAKI-1 renal = tested on: CAKI-1 renal
CCRF-CEM leukemia = tested on: CCRF-CEM leukemia
COLO 205 colon = tested on: COLO 205 colon
DU-145 prostate = tested on: DU-145 prostate
EKVX NSCLC = tested on: EKVX NSCLC
HCC-2998 colon = tested on: HCC-2998 colon
HCT-116 colon = tested on: HCT-116 colon
HCT-15 colon = tested on: HCT-15 colon
HL-60(TB) leukemia = tested on: HL-60(TB) leukemia
HOP-62 NSCLC = tested on: HOP-62 NSCLC
HS 578T breast = tested on: HS 578T breast
HT29 colon = tested on: HT29 colon
IGROV1 ovarian = tested on: IGROV1 ovarian
KM12 colon = tested on: KM12 colon
LOX IMVI melanoma = tested on: LOX IMVI melanoma
M14 melanoma = tested on: M14 melanoma
MALME-3M melanoma = tested on: MALME-3M melanoma
MCF7 breast = tested on: MCF7 breast
MDA-MB-231 breast = tested on: MDA-MB-231 breast
MDA-MB-435 = tested on: MDA-MB-435
MDA-N = tested on: MDA-N
MOLT-4 leukemia = tested on: MOLT-4 leukemia
NCI-H226 lung = tested on: NCI-H226 lung
NCI-H23 lung = tested on: NCI-H23 lung
NCI-H460 lung = tested on: NCI-H460 lung
NCI-H522 lung = tested on: NCI-H522 lung
NCI/ADR-RES ovarian = tested on: NCI/ADR-RES ovarian
OVCAR-3 ovarian = tested on: OVCAR-3 ovarian
OVCAR-4 ovarian = tested on: OVCAR-4 ovarian
OVCAR-5 ovarian = tested on: OVCAR-5 ovarian
OVCAR-8 ovarian = tested on: OVCAR-8 ovarian
PC-3 prostate = tested on: PC-3 prostate
RPMI-8226 leukemia = tested on: RPMI-8226 leukemia
RXF 393 renal = tested on: RXF 393 renal
SF-268 CNS = tested on: SF-268 CNS
SF-295 CNS = tested on: SF-295 CNS
SF-539 CNS = tested on: SF-539 CNS
SK-MEL-28 melanoma = tested on: SK-MEL-28 melanoma
SK-MEL-5 melanoma = tested on: SK-MEL-5 melanoma
SK-OV-3 ovarian = tested on: SK-OV-3 ovarian
SN12C renal = tested on: SN12C renal
SNB-19 CNS = tested on: SNB-19 CNS
SNB-75 CNS = tested on: SNB-75 CNS
SR leukemia = tested on: SR leukemia
SW-620 colon = tested on: SW-620 colon
T-47D breast = tested on: T-47D breast
TK-10 renal = tested on: TK-10 renal
U251 CNS = tested on: U251 CNS
UACC-257 melanoma = tested on: UACC-257 melanoma
UACC-62 melanoma = tested on: UACC-62 melanoma
UO-31 renal = tested on: UO-31 renal

Work on `O=[N+]([O-])C(Cl)(Cl)/C=C(\Cl)C(Cl)(Cl)[N+](=O)[O-]` yielded a GI50 (786-0 renal) of 1.81 µM, a TGI (786-0 renal) of 3.37 µM and a GI50 (A498 renal) of 14.5 µM. It also gave a TGI (A498 renal) of 28.9 µM, a GI50 (A549 NSCLC) of 15 µM and a TGI (A549 NSCLC) of 32.3 µM. It also gave a GI50 (ACHN renal) of 5.96 µM, a TGI (ACHN renal) of 12.1 µM and a GI50 (BT-549 breast) of 1.94 µM. The TGI (BT-549 breast) was 5.94 µM, the GI50 (CAKI-1 renal) was 0.835 µM and the TGI (CAKI-1 renal) was 4.52 µM. It also gave a GI50 (CCRF-CEM leukemia) of 0.0118 µM, a TGI (CCRF-CEM leukemia) of 0.236 µM and a GI50 (COLO 205 colon) of 1.25 µM. The TGI (COLO 205 colon) was 3.35 µM, the GI50 (DU-145 prostate) was 12.7 µM and the TGI (DU-145 prostate) was 31.1 µM. It also gave a GI50 (EKVX NSCLC) of 19.9 µM, a TGI (EKVX NSCLC) of 43.4 µM and a GI50 (HCC-2998 colon) of 17.8 µM. It also gave a TGI (HCC-2998 colon) of 45.7 µM, a GI50 (HCT-116 colon) of 0.772 µM and a TGI (HCT-116 colon) of 3.05 µM. It also gave a GI50 (HCT-15 colon) of 0.241 µM, a TGI (HCT-15 colon) of 1.71 µM and a GI50 (HL-60(TB) leukemia) of 0.101 µM. For the same compound, the TGI (HL-60(TB) leukemia) was 0.919 µM, the GI50 (HOP-62 NSCLC) was 21 µM and the TGI (HOP-62 NSCLC) was 40.4 µM. For the same compound, the GI50 (HS 578T breast) was 9.23 µM, the TGI (HS 578T breast) was 45.8 µM and the GI50 (HT29 colon) was 0.284 µM. For the same compound, the TGI (HT29 colon) was 1.9 µM, the GI50 (IGROV1 ovarian) was 5.15 µM and the TGI (IGROV1 ovarian) was 22.9 µM. The GI50 (KM12 colon) was 7.01 µM, the TGI (KM12 colon) was 24.9 µM and the GI50 (LOX IMVI melanoma) was 0.0322 µM. It also gave a TGI (LOX IMVI melanoma) of 0.248 µM, a GI50 (M14 melanoma) of 0.196 µM and a TGI (M14 melanoma) of 1.62 µM. It also gave a GI50 (MALME-3M melanoma) of 1.78 µM, a TGI (MALME-3M melanoma) of 3.52 µM and a GI50 (MCF7 breast) of 2.02 µM. The TGI (MCF7 breast) was 5.16 µM, the GI50 (MDA-MB-231 breast) was 3.03 µM and the TGI (MDA-MB-231 breast) was 14.4 µM. For the same compound, the GI50 (MDA-MB-435) was 2.03 µM, the TGI (MDA-MB-435) was 11.3 µM and the GI50 (MDA-N) was 1.2 µM. It also gave a TGI (MDA-N) of 2.62 µM, a GI50 (MOLT-4 leukemia) of 4.91 µM and a TGI (MOLT-4 leukemia) of 24.7 µM. The GI50 (NCI-H226 lung) was 18.6 µM, the TGI (NCI-H226 lung) was 43.9 µM and the GI50 (NCI-H23 lung) was 1.06 µM. The TGI (NCI-H23 lung) was 3.38 µM, the GI50 (NCI-H460 lung) was 5.46 µM and the TGI (NCI-H460 lung) was 20.5 µM. For the same compound, the TGI (NCI-H522 lung) was 0.0848 µM, the GI50 (NCI/ADR-RES ovarian) was 2.69 µM and the TGI (NCI/ADR-RES ovarian) was 12 µM. It also gave a GI50 (OVCAR-3 ovarian) of 1.51 µM, a TGI (OVCAR-3 ovarian) of 3.1 µM and a GI50 (OVCAR-4 ovarian) of 23.1 µM. For the same compound, the TGI (OVCAR-4 ovarian) was 51.7 µM, the GI50 (OVCAR-5 ovarian) was 21.7 µM and the TGI (OVCAR-5 ovarian) was 38.8 µM. It also gave a GI50 (OVCAR-8 ovarian) of 2.02 µM, a TGI (OVCAR-8 ovarian) of 8.46 µM and a GI50 (PC-3 prostate) of 2.86 µM. The TGI (PC-3 prostate) was 8.35 µM, the GI50 (RPMI-8226 leukemia) was 8.23 µM and the GI50 (RXF 393 renal) was 0.547 µM. It also gave a TGI (RXF 393 renal) of 2.14 µM, a GI50 (SF-268 CNS) of 3.02 µM and a TGI (SF-268 CNS) of 19.5 µM. For the same compound, the GI50 (SF-295 CNS) was 13.2 µM, the TGI (SF-295 CNS) was 28.2 µM and the GI50 (SF-539 CNS) was 6.11 µM. It also gave a TGI (SF-539 CNS) of 18.8 µM, a GI50 (SK-MEL-28 melanoma) of 1.12 µM and a TGI (SK-MEL-28 melanoma) of 5.21 µM. For the same compound, the GI50 (SK-MEL-5 melanoma) was 5.24 µM, the TGI (SK-MEL-5 melanoma) was 14.1 µM and the GI50 (SK-OV-3 ovarian) was 14.7 µM. The TGI (SK-OV-3 ovarian) was 27.9 µM, the GI50 (SN12C renal) was 1.5 µM and the TGI (SN12C renal) was 4.13 µM. The GI50 (SNB-19 CNS) was 16.1 µM, the TGI (SNB-19 CNS) was 34.1 µM and the GI50 (SNB-75 CNS) was 3.31 µM. For the same compound, the TGI (SNB-75 CNS) was 9.78 µM, the GI50 (SR leukemia) was 0.208 µM and the TGI (SR leukemia) was 2.81 µM. The GI50 (SW-620 colon) was 0.149 µM, the TGI (SW-620 colon) was 1.58 µM and the GI50 (T-47D breast) was 0.38 µM. The TGI (T-47D breast) was 2.14 µM, the GI50 (TK-10 renal) was 1.13 µM and the TGI (TK-10 renal) was 3.33 µM. For the same compound, the GI50 (U251 CNS) was 15.3 µM, the TGI (U251 CNS) was 31.5 µM and the GI50 (UACC-257 melanoma) was 0.69 µM. It also gave a TGI (UACC-257 melanoma) of 2.81 µM, a GI50 (UACC-62 melanoma) of 1.99 µM and a TGI (UACC-62 melanoma) of 8.69 µM. It also gave a GI50 (UO-31 renal) of 11.3 µM and a TGI (UO-31 renal) of 24.6 µM.
